# Earlier results, collected in patent US12378302B2, “Fusion molecules and uses thereof” (Foundation Medicine, Inc., priority 2012, dated 2025).
# System: tumors with FGFR1 fusions
smiles,measurement,value
Cc1ccc(C(=O)Nc2ccc(CN3CCN(C)CC3)c(C(F)(F)F)c2)cc1C#Cc1cnc2cccnn12 [ponatinib],efficacy in preclinical studies of tumors with FGFR1 fusions,shown efficacy
